Cyclic peptide permeability, from CycPeptMPDB

Data: CycPeptMPDB; original report Ahlbach et al. 2015, doi:10.4155/fmc.15.78.

PAMPA is the parallel artificial membrane permeability assay, which has no cells and reads passive diffusion.
P is given in units of 10^-6 cm/s (from log10 values with two decimals); larger means faster passage.

SMILES,PAMPA (10^-6 cm/s)
CC(C)C[C@@H]1OC(=O)[C@H](C)NC(=O)[C@H](C(C)(C)O)OC(=O)[C@H](C)N(C)C(=O)[C@@H](C)NC(=O)[C@@H](Cc2ccccc2)N(C)C1=O,6.5
CC[C@H](C)[C@@H]1NC(=O)[C@@H]2CCCN2C(=O)[C@@H](CC(O)CCl)OC(=O)CCNC(=O)[C@H](C)N(C)C(=O)[C@H](C(C)C)N(C)C1=O (stereo not given in full),0.079
CC(C)C[C@@H]1NC(=O)[C@H](C)N(C)C(=O)CNC(=O)/C(=C/c2ccccc2)N(C)C1=O,2.5
CC[C@H](C)[C@H]1OC(=O)[C@H](C(C)C)N(C)C(=O)[C@@H]([C@@H](C)CC)OC(=O)[C@H](C(C)C)N(C)C(=O)[C@@H]([C@@H](C)CC)OC(=O)[C@H](C(C)C)N(C)C1=O,1
CC(C)C[C@@H]1NC(=O)[C@H](Cc2ccccc2)NC(=O)[C@H](Cc2ccccc2)N(C)C(=O)[C@H](Cc2ccccc2)NC(=O)C(C)(C)NC(=O)[C@H](CC(C)C)N(C)C(=O)[C@@H]2CCCN2C1=O,65
CC[C@H](C)[C@H]1OC(=O)[C@H](C(C)C)N(C)C(=O)[C@@H](C(C)C)OC(=O)[C@H](C(C)C)N(C)C(=O)[C@@H]([C@@H](C)CC)OC(=O)[C@H](C(C)C)N(C)C1=O,4.6
CC(C)C[C@H]1OC(=O)CCNC(=O)[C@H](C)N(C)C(=O)[C@H](C(C)C)N(C)C(=O)[C@H](C(C)C)NC(=O)[C@@H]2CCCN2C1=O,1.3
CC[C@H](C)[C@@H]1NC(=O)CNC(=O)[C@@H](C)N(C)C(=O)[C@H](C(C)C)NC(=O)[C@H]([C@@H](C)O)N(C)C(=O)[C@H](C(C)C)NC(=O)[C@H]([C@@H](C)O)N(C)C(=O)[C@H](C(C)C)NC(=O)CNC(=O)[C@@H](Cc2ccccc2)N(C)C(=O)[C@H](C(C)C)NC(=O)[C@H](CO)NC(=O)[C@H](C(C)C)N(C)C(=O)[C@H](CO)N(C)C1=O,0.0041
CC[C@H](C)[C@H]1NC(=O)[C@@H](NC(=O)[C@@H](CC(C)C)NC)[C@@H](C)OC(=O)[C@H](Cc2ccc(OC)cc2)N(C)C(=O)[C@@H]2CCCN2C(=O)[C@H](CC(C)C)NC(=O)[C@@H](C)C(=O)[C@H](C(C)C)OC(=O)C[C@@H]1O,1.3
CC[C@H](C)[C@@H]1NC(=O)[C@@H]2CCCN2C(=O)[C@@H](CC(C)C)OC(=O)CCNC(=O)[C@H](C)N(C)C(=O)[C@H](C(C)C)NC1=O,0.22
CC(C)[C@H]1C(=O)O[C@H](C(C)C)C(=O)N(C)[C@@H](C)C(=O)O[C@H](C(C)C)C(=O)N(C)[C@@H](C(C)C)C(=O)O[C@H](C(C)C)C(=O)N1C,3.5
CC(C)C[C@@H]1OC(=O)[C@H](C)NC(=O)[C@H](C(C)C)OC(=O)[C@H](C)N(C)C(=O)[C@@H](C)NC(=O)[C@@H](Cc2ccccc2)N(C)C1=O,7.2
C/C=C/C[C@@H](C)[C@@H](O)[C@H]1C(=O)N[C@@H]([C@@H](C)O)C(=O)N(C)CC(=O)N(C)[C@@H](CC(C)C)C(=O)N[C@@H](C(C)C)C(=O)N(C)[C@@H](CC(C)C)C(=O)N[C@@H](C)C(=O)N[C@H](C)C(=O)N(C)[C@@H](CC(C)C)C(=O)N(C)[C@@H](CC(C)C)C(=O)N(C)[C@@H](C(C)C)C(=O)N1C,2.8
CC[C@H](C)[C@H]1OC(=O)[C@H](C(C)C)N(C)C(=O)[C@@H](C(C)C)OC(=O)[C@H](C(C)C)N(C)C(=O)[C@@H](C(C)C)OC(=O)[C@H](C(C)C)N(C)C1=O,2.2
CC(C)[C@@H]1NC(=O)[C@@H]2CCCN2C(=O)[C@@H](CC(O)CCl)OC(=O)CCNC(=O)[C@H](C)N(C)C(=O)[C@H](C(C)C)N(C)C1=O (stereo not given in full),0.04
C=CC[C@H]1OC(=O)CCNC(=O)[C@H](C)N(C)C(=O)[C@H](C(C)C)N(C)C(=O)[C@H]([C@@H](C)CC)NC(=O)[C@@H]2CCCN2C1=O,0.51
CC(C)[C@H]1C(=O)O[C@H](C(C)C)C(=O)N(C)[C@@H](C(C)C)C(=O)O[C@H](C(C)C)C(=O)N(C)[C@@H](C(C)C)C(=O)O[C@H](C(C)C)C(=O)N1C,19
CC[C@H](C)[C@@H]1NC(=O)[C@@H]2CCCN2C(=O)[C@@H](CC(C)C)OC(=O)CCNC(=O)[C@H](C)N(C)C(=O)[C@H](C(C)C)N(C)C1=O,5.1
CC[C@H](C)[C@@H]1NC(=O)[C@H]([C@@H](C)O)NC(=O)[C@H](Cc2ccc(OC)cc2)NC(=O)[C@@H]2CCCN2C1=O,0.058
CC(C)C[C@@H]1NC(=O)[C@H](Cc2ccccc2)N(C)C(=O)[C@H](C)NC(=O)c2ccccc2NC(=O)[C@H](Cc2ccc(O)cc2)N(C)C1=O,6
C/C=C/C[C@@H](C)[C@@H](O)[C@H]1C(=O)N[C@@H](CC)C(=O)N(C)CC(=O)N(C)[C@@H](CC(C)C)C(=O)N[C@@H](C(C)C)C(=O)N(C)[C@@H](CC(C)C)C(=O)N[C@@H](C)C(=O)N[C@H](C)C(=O)N(C)[C@@H](CC(C)C)C(=O)N(C)[C@@H](CC(C)C)C(=O)N[C@@H](C(C)C)C(=O)N1C,0.41
CCC(C)[C@@H]1OC(=O)[C@H](CCC(N)=O)N(C)C(=O)[C@H](C(C)C)NC(=O)[C@@H]2CCCCN2C(=O)[C@H]([C@@H](C)CC)NC(=O)[C@H](CCC(N)=O)N(C)C(=O)[C@H](C(C)C)N(C)C(=O)CNC(=O)[C@@H]2CCCN2C(=O)[C@H](Cc2ccccc2)NC1=O (stereo not given in full),0.0004
CC(C)C[C@@H]1NC(=O)[C@H](Cc2ccccc2)NC(=O)[C@H](Cc2ccccc2)N(C)C(=O)[C@H](Cc2ccccc2)NC(=O)C(C)(C)NC(=O)[C@H](CC(C)C)N(C)C(=O)[C@@H]2[C@@H](C)CCN2C1=O,83
CC(C)[C@@H]1NC(=O)[C@H]([C@@H](C)O)N(C)C(=O)[C@H](C(C)C)NC(=O)[C@H]([C@@H](C)O)N(C)C(=O)[C@H](C(C)C)NC(=O)CNC(=O)[C@@H](Cc2ccccc2)N(C)C(=O)[C@H](C(C)C)NC(=O)[C@H](CO)NC(=O)[C@H](C(C)C)N(C)C(=O)[C@H](CO)N(C)C(=O)[C@H](C(C)C)NC(=O)CNC(=O)[C@@H](C)N(C)C1=O,0.058

A selection of 2 entries from above:

SMILES,PAMPA (10^-6 cm/s)
CC(C)[C@@H]1NC(=O)[C@@H]2CCCN2C(=O)[C@@H](CC(O)CCl)OC(=O)CCNC(=O)[C@H](C)N(C)C(=O)[C@H](C(C)C)N(C)C1=O (stereo not given in full),0.04
C=CC[C@H]1OC(=O)CCNC(=O)[C@H](C)N(C)C(=O)[C@H](C(C)C)N(C)C(=O)[C@H]([C@@H](C)CC)NC(=O)[C@@H]2CCCN2C1=O,0.51

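Conditions beyond the assay type are not listed; see the original paper. Other peptides of the study may be missing here. Entries at the database's floor value (log10 P of -10) are not listed.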